The source of these data is US20250346630A1, “Engineering Peptides Using Peptide Epitope Linker Evolution” (AGENCY FOR SCIENCE, TECHNOLOGY AND RESEARCH, priority 2022, published 2025).

The chains behind the UniProt entries cited, without tags or fusion partners. Residues count along the entry.
full-length human eIF4E (human), P06730, UniProt P06730, 2-217: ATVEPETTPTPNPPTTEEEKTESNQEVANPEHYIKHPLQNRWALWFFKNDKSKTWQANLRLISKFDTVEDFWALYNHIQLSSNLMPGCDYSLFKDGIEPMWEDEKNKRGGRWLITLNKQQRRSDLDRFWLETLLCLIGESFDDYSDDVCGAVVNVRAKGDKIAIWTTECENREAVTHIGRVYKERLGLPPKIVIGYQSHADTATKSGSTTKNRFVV

The experiment concerns the target full-length human eIF4E (human), P06730. Briefly: competitive fluorescence anisotropy, displacement of m7GTP^FAM from eIF4E (apparent Kd); m^7GTP^FAM tracer: competition at the cap-binding site. Conditions: remark: other sources report otherwise. In general terms: In fluorescence polarisation assays a small probe gives low polarisation when free and higher when bound to something large.

B1: EE-08 (peptide)
peptide: ACETGFYKTCG
modifications: here or on the partner: disulphide between the two Cys; C-terminal amide; N-terminus printed NH2- (methods: all peptides N-acetylated)
B1: the Kd is 16.7 µM.

B2: EE-01 (peptide)
peptide: ACETGFFTGCG
modifications: here or on the partner: disulphide between the two Cys; C-terminal amide; N-terminus printed NH2- (methods: all peptides N-acetylated)
For the molecule B2, the Kd amounted to 15 µM.
